# Measurements taken from PMC11768664 (Viruses, 2024).
# Key:
# [1] = test system: HeLa human cervical cancer cells; assay: Growth inhibition (proliferation) MTT assay on HeLa cells; type: cell-based; settings: 96 h (Figure 1 legend; table footnote prints 120 h)
# [2] = test system: HeLa human cervical cancer cells; assay: Combination growth inhibition assay and Combination Index on HeLa cells; type: cell-based; settings: preliminary experiment turmeric plus carrageenan; after sonication; 96 h; MTT; read-out: IC50 alone on HeLa cells
substance,measurement,setting,value
lambda carrageenan,"IC50, growth inhibitory activity on HeLa cells",[1],greater than 100 µg/mL
same,IC50,[2],~2 µM
